Here are results for 1 substance from patent publication US11091496B2, “Opioid ketal compounds and uses thereof” (priority 2013, dated 2021).

This data set is described as follows: Hydrolysis in fresh EDTA stabilized blood plasma at 37° C. The following applies: mixture of isomers, 1.1 mg, four hour period.

In the case of hydrocodone 2,4-pentanediol ketal, the “ketal hydrolyzed to parent opioid in blood plasma” value is “approximately 0.2%”.
